Data: patent US7728107B2 (priority 2005, dated 2010)

Chains of the proteins cited; added tags and fusions are not shown.
UniProt P41595, whole entry: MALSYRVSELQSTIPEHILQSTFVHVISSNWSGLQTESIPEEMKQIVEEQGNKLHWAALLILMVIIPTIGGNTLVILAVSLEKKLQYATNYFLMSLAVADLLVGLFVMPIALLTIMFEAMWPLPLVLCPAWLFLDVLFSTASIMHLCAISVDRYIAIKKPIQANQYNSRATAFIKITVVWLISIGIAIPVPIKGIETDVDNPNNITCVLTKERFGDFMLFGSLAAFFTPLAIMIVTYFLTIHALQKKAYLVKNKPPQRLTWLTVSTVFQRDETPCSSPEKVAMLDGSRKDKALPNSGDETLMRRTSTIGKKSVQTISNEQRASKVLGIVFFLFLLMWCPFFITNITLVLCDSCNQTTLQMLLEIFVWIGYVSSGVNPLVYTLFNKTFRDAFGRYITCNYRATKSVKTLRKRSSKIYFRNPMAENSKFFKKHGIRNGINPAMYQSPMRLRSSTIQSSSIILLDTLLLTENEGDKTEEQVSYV
UniProt P28223, whole entry: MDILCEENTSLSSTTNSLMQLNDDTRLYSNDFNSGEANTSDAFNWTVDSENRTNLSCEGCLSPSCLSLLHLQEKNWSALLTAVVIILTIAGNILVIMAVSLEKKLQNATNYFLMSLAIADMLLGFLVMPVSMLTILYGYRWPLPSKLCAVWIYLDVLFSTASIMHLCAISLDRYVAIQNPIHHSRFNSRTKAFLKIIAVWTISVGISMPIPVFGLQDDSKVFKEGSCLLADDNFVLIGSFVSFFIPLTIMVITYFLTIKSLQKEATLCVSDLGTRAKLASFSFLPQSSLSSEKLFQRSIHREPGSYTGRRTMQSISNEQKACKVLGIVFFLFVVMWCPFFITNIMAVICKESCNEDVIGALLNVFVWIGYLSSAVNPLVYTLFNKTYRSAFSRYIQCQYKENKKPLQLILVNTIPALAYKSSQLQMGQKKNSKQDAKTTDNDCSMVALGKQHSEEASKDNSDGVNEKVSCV

What was measured:
human 5-HT2B receptor [1] = target: T1, human 5-HT2B receptor (Homo sapiens, UniProt P41595); test: biochemical; format: binding; parameters: expressed in transfected cells; details: for Affinity constant pKI h5-HT2B: CHO membranes, head: [^3H]-mesulergine, mean ± S.E.M of 3-8 experiments
human 5-HT2B receptor [2] = target: T1, human 5-HT2B receptor; details: CHO, Ca^2+ FLIPR, apparent pKB, mean ± S.E.M of 3 to 6 experiments
human 5-HT2A receptor = human 5-HT2A receptor (Homo sapiens, UniProt P28223); test: biochemical

| Compound | Ki (human 5-HT2B receptor [1]) [nM] | Antagonist affinity pKB h5-HT2B (human 5-HT2B receptor [2]) | Affinity constant pKI h5-HT2B (human 5-HT2B receptor [1]) | Ki (human 5-HT2A receptor) [nM] |
| --- | --- | --- | --- | --- |
| CC(N)Cc1c[nH]c2ccc(OCc3cccs3)cc12 (centres unmarked) [1-{5-(2-thienyl-methoxy)-1H-3-indolyl}propan-2-amine] | 7.76 | – | – | – |
| CSc1ccc2c(c1)C(N1CCN(C)CC1)Cc1ccccc1S2 (centres unmarked) [Methiothepin, methiothepin] | – | 8.28 ± 0.03 | 8.38 ± 0.03 | – |
| Clc1cccc(N2CCNCC2)c1 [m-CPP, 1-(3-chlorophenyl)piperazine] | – | – | 7.54 ± 0.07 | 87.1 |
